Results reported in PMC6379965, “Expression and activity of the calcitonin receptor family in a sample of primary human high-grade gliomas” (BMC Cancer, 2019).

The chains behind the UniProt entries cited, without tags or fusion partners. Residues count along the entry.
UniProt O60894, 27-148: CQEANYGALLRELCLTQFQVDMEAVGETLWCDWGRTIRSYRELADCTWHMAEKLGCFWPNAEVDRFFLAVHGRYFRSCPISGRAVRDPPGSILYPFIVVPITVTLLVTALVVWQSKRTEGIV
UniProt Q16602, 23-461: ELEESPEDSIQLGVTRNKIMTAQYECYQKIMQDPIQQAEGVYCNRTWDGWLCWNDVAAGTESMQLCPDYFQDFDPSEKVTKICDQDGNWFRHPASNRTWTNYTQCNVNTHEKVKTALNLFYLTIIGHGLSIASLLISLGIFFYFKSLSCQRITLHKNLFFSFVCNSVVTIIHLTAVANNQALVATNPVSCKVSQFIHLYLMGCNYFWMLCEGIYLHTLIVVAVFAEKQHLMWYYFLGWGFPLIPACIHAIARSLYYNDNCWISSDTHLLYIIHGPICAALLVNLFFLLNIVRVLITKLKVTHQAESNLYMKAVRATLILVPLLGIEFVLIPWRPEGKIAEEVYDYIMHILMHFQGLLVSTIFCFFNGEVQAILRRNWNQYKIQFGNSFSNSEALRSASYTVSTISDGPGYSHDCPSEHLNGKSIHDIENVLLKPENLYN

How the values were obtained:
Type in all cases: cell-based
Details in all cases: 1 μM αCGRP(8–37)
[1] = target: T1, CGRP (CLR/RAMP1) receptor in JK2 cell line (Homo sapiens, UniProt O60894+Q16602); experiment: cAMP accumulation, αCGRP and AM, JK2
T1 construct: the other cell lines have functional CGRP (CLR/RAMP1) receptors; endogenous in cells; host or cells: PB1, JK2 and WK1 patient-derived high-grade glioma cell lines
Method: (§1) Primary patient high-grade glioma (HGG) cell lines, in vitro surrogates of glioblastoma, were developed by QIMR-Berghofer Medical Research Institute (Brisbane, Australia) and represent 3 distinct GBM subtypes: SB2b and PB1 (classical), JK2 (proneural) and WK1(mesenchymal), who supplied these directly for this study. GBM cell lines were cultured as adherent monolayers on matrigel (BD Biosciences)-coated flasks using StemPro NSC SFM serum free cell culture medium (Thermo Fisher Scientific) supplemented with 20 ng/ml EGF and 20 ng/ml FGFb, 1% D-glutamine and 1% of penicillin/ streptomycin (further referred as StemPro complete medium).
(§2) GBM cell lines were seeded at 38000 cells/well (SB2b) or 35,000 cells/well (PB1, JK2 and WK1) in 96-well matrigel-coated plates and incubated for 24 h at 37°C, 5% CO2 in humidified incubator in StemPro complete medium. Media was replaced with stimulation buffer (phenol red free F12 media, 0.1% BSA, 0.5 mM IBMX, pH 7.4). […] Cells were lysed (0.3% Tween 20, 5 mM Hepes, 0.1% BSA, pH 7.4) and 5 μl of cell lysate from each well was transferred to a corresponding well of 384-well optiplate. […] Data were analysed by three-parameter logistic curve and are presented as percentage of 10^− 5 M forskolin response.

[2] = target: T2, CGRP (CLR/RAMP1) receptor in PB1 cell line (Homo sapiens, UniProt O60894+Q16602); experiment: cAMP accumulation, αCGRP and AM, PB1
T2 construct: the other cell lines have functional CGRP (CLR/RAMP1) receptors; endogenous in cells; host or cells: PB1, JK2 and WK1 patient-derived high-grade glioma cell lines
Method: as §1, §2

[3] = target: T3, CGRP (CLR/RAMP1) receptor in WK1 cell line (Homo sapiens, UniProt O60894+Q16602); experiment: cAMP accumulation, αCGRP and AM, WK1
T3 construct: the other cell lines have functional CGRP (CLR/RAMP1) receptors; endogenous in cells; host or cells: PB1, JK2 and WK1 patient-derived high-grade glioma cell lines
Method: as §1, §2

decrease in potency of αCGRP response by antagonist [1]: ~100 fold
shift in the EC50 of αCGRP by antagonist [1]: 2 logarithmic unit
decrease in potency of αCGRP response by antagonist [2]: ~100 fold
shift in the EC50 of αCGRP by antagonist [2]: 2 logarithmic unit
decrease in potency of αCGRP response by antagonist [3]: ~100 fold
shift in the EC50 of αCGRP by antagonist [3]: 2 logarithmic unit
Substance: αCGRP(8–37): CGRP receptor antagonist
